From PubChem
Sampled rows, rich in hits. Any-hit rate of the full collection: about 2.1%.
UUG fidelity = yeast start codon fidelity modulation; AID 602363; activity score, % at 18.7 µM; S. cerevisiae UUG-firefly luciferase reporter, luminescence/redox ratio; 0.13% of 350,000 active;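 active means replicate mean at a twofold rise or more, about +100% in these data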;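 further: firefly luciferase made from a UUG start codon reports start codon fidelity; reporter light over untreated wells divided by growth signal over untreated wells; some hits fall short of that in this replicate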
SMARCA2 act = activators of SMARCA2 function; MG213 cells, MMTV-luciferase reporter, dexamethasone, overnight; activation, % at 9.1 µM; hit rate 1% among 370,000; in the data active means activation above about 7.8%;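 further: 0% = vehicle wells and 100% = reference activator wells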
INS-1E GSIS act = primary screen for activators of insulin secretion dependent on glucose, INS-1E cells, GLuc reporter luminescence; activation, % at 16.6 µM; hit rate 0.61% among 370,000; INS-1E GLuc reporter insulin secretion, 2-3 h;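 active means lowest replicate activation of at least 40%, so every replicate reaches that level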;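 further: 0% = median of neutral control wells and 100% = median of IBMX positive control wells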
ERp5 block = inhibitors of human ERp5 | Q15084 | ERp5 insulin aggregation, absorbance 650 nm, 90 min | inhibition, % at 9.99 µM | hit rate 0.05% among 350,000 | AID 651711;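 active means mean replicate inhibition above about 25%, with every replicate also reaching it, limit read from the data, passing the limit was not always enough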
PDI inh = inhibitors of human protein disulfide isomerase; P07237; PDI insulin aggregation turbidity, A650, 90 min; inhibition, % at 10 µM; hit rate 0.052% among 350,000; AID 588391;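 active means mean inhibition across replicates of 30% or more, whatever share of single replicates reach that level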
Rev-erbA mod = modulators of human Rev-erb alpha DNA binding | P20393 | Rev-erbα–FITC-DNA binding, fluorescence polarization, 90 min | activity, % at 10 µM | hit rate 0.79% among 370,000 | AID 1259318;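 active means activity above about 14%, limit read from the data; passing the limit was not always enough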;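 further: 0% = DMSO wells with 35 nM protein and 100% = DMSO wells with 750 nM protein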
SMARCA2 conf = SMARCA2 activation, confirmation screen. shares compounds with SMARCA2 act. MG213 cells, MMTV-luciferase with dexamethasone, luminescence, overnight; MG213 cells expressing E1A, Rb sequestered; DMSO wells 0%, reference activator 100%. activation, % at 9.1 µM. hit rate 30% among 3,500. AID 652260;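 active means activation above its plate's cutoff, the mean activation of tested wells plus 3 SD, cut at about 7.9% in these data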
VP16 Luc act = counter-screen for SMARCA2 activators: GAL4-VP16 luciferase reporter activation | hit rate 41% among 3,500 | HEK293 GAL4-VP16 pG5luc reporter, luciferase luminescence; scaled: DMSO wells 0%, SAHA wells 100% | activation, % at 9.1 µM | shares compounds with SMARCA2 act | AID 686939;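 active means activation above the solvent-only control well mean plus 3 SD, averaged across control plates, cut at about 5.2% in these data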
The depositor's hits bear a star; . = not tested or not shown.

SMILES	UUG fidelity	SMARCA2 act	INS-1E GSIS act	ERp5 block	PDI inh	Rev-erbA mod	SMARCA2 conf	VP16 Luc act
C[C@@H]1CN([C@H](C)CO)C(=O)c2cccc(NC(=O)c3nc4ccccc4s3)c2O[C@@H]1CN(C)Cc1ccncc1	5	.	-9	3	.	.	.	.
O=[N+]([O-])c1cnc(Sc2ccncn2)s1	-30	12*	-5	4	0	-1	-15	5.5*
O=[N+]([O-])c1cnc(Sc2ccncn2)c([N+](=O)[O-])c1	-12	0	.	-8	4	-1	.	.
CC(C)(C)SCCNC(=O)/C=C/c1ccccc1	-6	8.1*	-17	-2	-2	4	6	5
Cc1ccc(OCCCCCCN2CCNCC2)c(Br)c1	-42	11*	55	0	17	5	2	9.7*
C[C@@H]1CN([C@@H](C)CO)C(=O)c2cc(NC(=O)Cc3cn(C)c4ccccc34)ccc2O[C@@H]1CN(C)C(=O)Nc1cccc2ccccc12	-14	.	4	-7	.	.	.	.
CCN1CCN(CCOCCOc2ccccc2)CC1	-13	-3	6	-3	-9	-1	.	.
CCN1CCN(CCOc2cccc(Oc3ccccc3)c2)CC1	.	8.0*	16	-9	0	4	-3	1
CCOCC(=O)Nc1nc2ccc(OC)cc2s1	-36	7	.	.	-9	3	.	.
O=C(Nc1nc(-c2nc3ccccc3s2)cs1)c1ccco1	-5	12*	7	-5	-6	-3	9.5*	8.3*
COc1ccc(Nc2nc3ccc(OC)cc3s2)cc1	.	3	7	-3	-1	0	.	.
COc1ccc2nc(Nc3nc(C)c(C(C)=O)s3)sc2c1	-9	9.7*	.	.	-5	-6	-12	14*
Cc1ccc2nc(NC(=O)COC(=O)c3ccco3)sc2c1	.	9.8*	.	.	-3	1	8	2
O=C(Nc1nc(-c2ccc(Cl)s2)cs1)c1ccco1	.	-1	6	1	-5	.	.	.
CCOc1ccc2nc(NC(=O)COC)sc2c1	-29	8.0*	.	.	2	0	15*	13*
CC(=O)N(C)C[C@H]1Oc2ncc(C#C[C@H](C)O)cc2C(=O)N([C@H](C)CO)C[C@@H]1C	-13	.	-6	-2	.	.	.	.
C[C@@H]1CN([C@@H](C)CO)C(=O)c2cc(Br)cnc2O[C@@H]1CN(C)C(=O)C1CCOCC1	44	.	27	-1	.	.	.	.
O=C(c1ccncc1)N1CC2(C1)[C@@H](c1ccccc1)[C@@H](CO)N2CC1CCOCC1	.	.	10	3	.	.	.	.
CCOC(=O)c1ccc2nc(NC(=O)C(C)C)sc2c1	-11	10*	.	0	1	-2	8	4
CS(=O)(=O)c1ccc2nc(NC(=O)c3ccco3)sc2c1	-26	9.9*	.	-2	-9	-4	11*	12*
Cc1ccc(C(=O)Nc2nc3ccc(S(C)(=O)=O)cc3s2)o1	-8	1	.	.	-5	2	.	.
CCCC(=O)Nc1nc2ccc(C(=O)OCC)cc2s1	-11	2	.	-6	1	5	.	.
O=C(NN=C1CCCCCCCCCCC1)c1ccccc1F	17	17*	2	.	-6	-7	-1	2
Cc1ccc(C(=O)CCNc2cccc(Br)c2)o1	.	8.8*	.	.	0	0	2	1
Cc1ccc(C(=O)CCNc2ccc(Br)cc2)o1	-26	5	.	.	2	4	.	.
CO[C@@H]1CN(C)C(=O)c2cc(NC(=O)c3ccccc3)ccc2OC[C@H](C)N(CC2CC2)C[C@@H]1C	.	.	5	.	.	.	.	.
O=C1C2C3CCC(O3)C2C(=O)N1c1nccs1 (stereo not drawn)	-14	9.5*	-27	1	9	5	0	0
C/C=C/c1ccc([C@@H]2[C@@H](CO)N(C(=O)C3CCCC3)C23CN(C(=O)NC(C)C)C3)cc1	.	.	-22	-2	.	.	.	.
O=C(/C=C/c1ccccc1Cl)Nc1cccnc1	-10	9.0*	12	0	-2	0	8.3*	7.5*
COc1cccc(NC(=O)CN2C(=O)c3cccnc3Oc3ccc(Cl)cc32)c1	-17	8.3*	0	1	.	-4	1	0
CC1CCCC(C)N1CCCNC(=O)CN1C(=O)c2cccnc2Oc2ccc(Cl)cc21 (stereo not drawn)	-8	8.9*	9	2	.	0	-1	1
O=C(CN1C(=O)c2cccnc2Oc2ccc(Cl)cc21)Nc1ccccc1F	-11	5	1	-4	.	11	.	.
N#Cc1c(N)nc2c(c1N)CC(CCl)O2 (stereo not drawn)	.	9.7*	2	.	-35	-2	-6	0
C[C@@H]1CN([C@H](C)CO)C(=O)c2cc(NS(=O)(=O)c3ccc(F)cc3)ccc2O[C@@H](C)CCCCO[C@@H]1CN(C)S(C)(=O)=O	16	.	17	0	.	.	.	.
C[C@@H]1CCCCO[C@H](CN(C)S(=O)(=O)c2ccc(F)cc2)[C@H](C)CN([C@@H](C)CO)C(=O)c2cc(NC(=O)Nc3ccc4c(c3)OCO4)ccc2O1	-3	.	-4	1	.	.	.	.
Cc1ccc2c(COC(=O)C3=COCCO3)cc(=O)oc2c1	-1	8.5*	.	.	-11	-1	0	8.4*
COc1ccc(N/C(C)=C/C(=S)Nc2ccccc2)cc1	.	12*	-19	.	1	3	3	2
COc1ccc(N/C(C)=C/C(=O)c2ccccc2)cc1	-20	-1	41	-2	16	-3	.	.
N#Cc1c2n(c3c(=O)[nH]cnc13)CCCC2	-13	9.3*	.	.	9	-2	-5	-1
N#Cc1c2n(c3c(=S)nc[nH]c13)CCCCC2	.	0	.	.	-3	-2	.	.
COc1ccc(OC)c2sc(N(CCCN(C)C)C(=O)CCS(=O)(=O)c3ccccc3)nc12	0	9.9*	31	-3	2	4	-15	-1
CCN(CC)CCN(C(=O)CCS(=O)(=O)c1ccccc1)c1nc2cc(OC)c(OC)cc2s1	3	8.7*	1	-2	10	-4	-4	1
COc1ccc(Cl)c2sc(N(CCN(C)C)C(=O)CCS(=O)(=O)c3ccc(C)cc3)nc12	.	-1	-7	2	6	5	.	.
CC(C)NC(=O)N(C)C[C@@H]1Oc2ncc(C#CC3CCCCC3)cc2C(=O)N([C@@H](C)CO)C[C@@H]1C	8	.	-5	.	.	.	.	.
CC(=O)N1c2ccc(S(=O)(=O)N3CCC(C(=O)NCc4ccc(Cl)cc4)CC3)cc2CC1C (stereo not drawn)	5	-5	0	2	14	2	.	.

Part of the list above, reformatted.
O=[N+]([O-])c1cnc(Sc2ccncn2)c([N+](=O)[O-])c1
  UUG fidelity: -12
  SMARCA2 act: 0
  INS-1E GSIS act: .
  ERp5 block: -8
  PDI inh: 4
  Rev-erbA mod: -1
  SMARCA2 conf: .
  VP16 Luc act: .

Cc1ccc2nc(NC(=O)COC(=O)c3ccco3)sc2c1
  UUG fidelity: .
  SMARCA2 act: 9.8*
  INS-1E GSIS act: .
  ERp5 block: .
  PDI inh: -3
  Rev-erbA mod: 1
  SMARCA2 conf: 8
  VP16 Luc act: 2

COc1ccc2nc(Nc3nc(C)c(C(C)=O)s3)sc2c1
  UUG fidelity: -9
  SMARCA2 act: 9.7*
  INS-1E GSIS act: .
  ERp5 block: .
  PDI inh: -5
  Rev-erbA mod: -6
  SMARCA2 conf: -12
  VP16 Luc act: 14*

CC(=O)N1c2ccc(S(=O)(=O)N3CCC(C(=O)NCc4ccc(Cl)cc4)CC3)cc2CC1C (stereo not drawn)
  UUG fidelity: 5
  SMARCA2 act: -5
  INS-1E GSIS act: 0
  ERp5 block: 2
  PDI inh: 14
  Rev-erbA mod: 2
  SMARCA2 conf: .
  VP16 Luc act: .
